# Target: T1, Usp14/26S proteasome complexes (Homo sapiens, UniProt P54578)
# Chains of the proteins cited; added tags and fusions are not shown. Lines headed by an entry give the natural chain unless they say otherwise; changes in a name come on top.
# UniProt P54578: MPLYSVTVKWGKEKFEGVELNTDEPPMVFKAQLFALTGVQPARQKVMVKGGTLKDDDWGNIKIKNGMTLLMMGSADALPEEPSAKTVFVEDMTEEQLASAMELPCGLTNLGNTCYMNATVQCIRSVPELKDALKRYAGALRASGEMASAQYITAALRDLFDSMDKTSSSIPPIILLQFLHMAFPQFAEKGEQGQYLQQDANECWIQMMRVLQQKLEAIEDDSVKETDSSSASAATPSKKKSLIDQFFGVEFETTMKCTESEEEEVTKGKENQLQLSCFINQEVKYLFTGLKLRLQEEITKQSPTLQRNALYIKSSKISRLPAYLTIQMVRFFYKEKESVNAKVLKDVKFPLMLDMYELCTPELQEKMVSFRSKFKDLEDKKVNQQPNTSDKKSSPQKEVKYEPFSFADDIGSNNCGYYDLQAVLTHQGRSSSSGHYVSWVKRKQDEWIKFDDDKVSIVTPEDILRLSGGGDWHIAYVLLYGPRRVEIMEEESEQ
# T1 construct: GST (N, cleaved yes); made in house; host or cells: E. coli Rosetta 2 (DE3) for Usp14
# Test: Ub-AMC hydrolysis by VS-proteasomes reconstituted with recombinant Usp14
# Type: biochemical
# Protocol: To test whether Usp14 is a potent inhibitor of human proteasomes, a purification procedure was developed to generate proteasomes that lack detectible levels of deubiquitinase Usp14 (modified from Wang et al., (2007), Biochemistry, 46, 3553-3565). Briefly, human proteasomes were affinity-purified on a large scale from a stable HEK293 cell line harboring HTBH-tagged hRpn11. The cells were Dounce-homogenized in lysis buffer (50 mM NaH2PO4 [pH 7.5], 100 mM NaCl, 10% glycerol, 5 mM MgCl2, 0.5% NP-40, 5 mM ATP, and 1 mM DTT) containing protease inhibitors. Lysates were cleared, then incubated with NeutrAvidin agarose resin (Thermo Scientific) overnight at 4° C. The beads were then washed with excess lysis buffer followed by the wash buffer (50 mM Tris-HCl [pH 7.5], 1 mM MgCl2 and 1 mM ATP). […]
# Compounds were screened for Usp14/26S inhibition in 384-well low-volume plates in duplicate. […] Compounds over the cut-off of Z>5 were mostly autofluorescent and were therefore not counted. To exclude quenching compounds that only affect AMC fluorescence, 312 primary hits were tested for quenching of AMC amine, and pure quenchers were scored as false-positives and excluded from further analysis (FIG. 8B). Of the 63,052 compounds analyzed in the high-throughput screen, 215 were identified as true inhibitors of Usp14. […]
smiles,measurement,value
"Cc1cc(C(=O)CN2CCCC2)c(C)n1-c1ccc(F)cc1 [IU1, 1-[1-(4-fluorophenyl)-2,5-dimethlypyrrol-3-yl]-2-pyrrolidin-1-ylethanone]",IC50,2 to 5 µM

# Reference: patent US10351568B2, “Compositions and methods for enhancing proteasome activity” (President and Fellows of Harvard College, priority 2010, dated 2019)
